This is an account of results in patent US20260115185A1, “QUINOLINE DERIVATIVES WHICH ACT AS KAPPA-OPIOID RECEPTOR ANTAGONISTS” (The Scripps Research Institute, priority 2023, published 2026).

The chains behind the UniProt entries cited, without tags or fusion partners.
UniProt P35372, whole entry: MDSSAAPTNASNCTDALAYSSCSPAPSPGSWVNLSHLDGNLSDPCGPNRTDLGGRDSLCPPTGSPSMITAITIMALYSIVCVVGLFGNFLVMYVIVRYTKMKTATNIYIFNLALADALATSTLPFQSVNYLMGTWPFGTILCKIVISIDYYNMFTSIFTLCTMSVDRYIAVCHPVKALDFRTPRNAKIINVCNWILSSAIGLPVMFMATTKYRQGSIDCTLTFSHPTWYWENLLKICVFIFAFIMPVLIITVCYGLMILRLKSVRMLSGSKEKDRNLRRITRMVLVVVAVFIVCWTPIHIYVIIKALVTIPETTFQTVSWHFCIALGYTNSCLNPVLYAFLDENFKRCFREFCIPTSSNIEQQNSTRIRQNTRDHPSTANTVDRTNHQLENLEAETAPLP
UniProt P41145, whole entry: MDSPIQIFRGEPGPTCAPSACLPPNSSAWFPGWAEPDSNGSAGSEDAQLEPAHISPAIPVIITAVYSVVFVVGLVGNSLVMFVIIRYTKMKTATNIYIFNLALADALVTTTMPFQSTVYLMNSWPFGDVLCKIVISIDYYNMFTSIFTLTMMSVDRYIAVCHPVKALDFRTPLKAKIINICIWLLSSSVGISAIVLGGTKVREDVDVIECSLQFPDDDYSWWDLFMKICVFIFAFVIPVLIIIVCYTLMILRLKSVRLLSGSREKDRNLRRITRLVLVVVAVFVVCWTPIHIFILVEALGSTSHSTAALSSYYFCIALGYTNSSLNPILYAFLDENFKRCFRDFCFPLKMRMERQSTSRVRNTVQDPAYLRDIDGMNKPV

Some results are limits rather than exact numbers.

One assay has as its target mu opioid receptor (MOR) (Homo sapiens, UniProt P35372). The assay is described as follows: OPRMu1 Discover X β-arrestin Assay, antagonist mode (U2OS cells, DAMGO EC80 challenge). It is filed as cell-based. The settings on record: read-out: MOR IC50.
In assay [1] the target is kappa opioid receptor (KOR) (Homo sapiens, UniProt P41145). The assay is described as follows: OPRKappa 1 Tango B-Arrestin Assay, antagonist mode (Tango OPRK1-bla U2OS cells, U50488 EC80 challenge). It is filed as cell-based.

For `CCc1cc(-c2ccn(C)n2)c2nc(N3CCC(N[C@H]4CCOC[C@@H]4F)CC3)c(-c3ccn(C)n3)c(C)c2c1`, the IC50 is greater than 1 µM on mu opioid receptor (MOR) and 0.001 to 0.01 µM in assay [1] (read-out: KOR IC50, antagonist mode, Tango OPRK1-bla U2OS cells, 6 nM U50488 challenge). The “Selectivity (MOR/KOR)” value in assay [1] (Kappa selectivity, MOR IC50 / KOR IC50) is on record as “+++ (between 100- to 1000-fold selective)”.
